The list shows a part of the results, in another mix than the full data. Active and inactive are the calls of the source.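 The calls were made as follows: active = inhibition above the mean of all tested compounds plus 3 SD (cut at about 43% in these data); inactive = the rest.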

The chains behind the UniProt entries cited, without tags or fusion partners.
UniProt P08908, whole entry: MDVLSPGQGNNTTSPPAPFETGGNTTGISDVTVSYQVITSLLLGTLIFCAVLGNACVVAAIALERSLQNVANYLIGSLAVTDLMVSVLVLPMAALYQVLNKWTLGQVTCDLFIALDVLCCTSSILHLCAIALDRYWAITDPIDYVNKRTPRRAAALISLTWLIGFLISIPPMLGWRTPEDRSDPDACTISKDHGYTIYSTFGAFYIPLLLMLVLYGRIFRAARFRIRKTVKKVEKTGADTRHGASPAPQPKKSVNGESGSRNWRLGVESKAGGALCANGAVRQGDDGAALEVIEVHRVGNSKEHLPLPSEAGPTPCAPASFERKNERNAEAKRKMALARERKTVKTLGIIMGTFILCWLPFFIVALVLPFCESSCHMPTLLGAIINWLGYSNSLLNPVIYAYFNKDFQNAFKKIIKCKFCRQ

The test has as its target 5-hydroxytryptamine receptor 1A (Homo sapiens) (UniProt P08908). Nature of the test: human 5-HT1a receptor antagonists, primary screen, cell-based, CHO, Ga15 NFAT-bla reporter (AID 612).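 Also: receptor stimulated by 5-CT agonist at 100 nM near EC80; beta-lactamase reporter measured by ratiometric fluorescence of a cleavable substrate.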 The settings on record: CHO 5-HT1a Ga15 NFAT-bla reporter, antagonist mode; at 10 µM; hits give high values.
In general, inhibition refers to the drop in the measured response relative to a control, in per cent. As for `N/C(=N\O)c1c(N)no[n+]1[O-]`, the inhibition was inactive: -16.8%.
For `CCC(CO)(C(=O)OC1CN2CCC1CC2)c1ccccc1` (configuration not stated) the value was inactive: -1.9%.
Consider `CCOc1ncccc1C(=O)NCC1(N2CCOCC2)CCCCC1`, for which the inhibition was inactive: 7.7%.
As for `Fc1ccccc1NC1CCN(Cc2ccccc2)CC1`, the inhibition was inactive: 22.5%.
As for `COc1ccc(NC2CCN(CCc3ccccc3)CC2)c(OC)c1`, the inhibition is active: 49.2%.
Take `O=C(OC1CN2CCC1CC2)C1c2ccccc2Oc2ccccc21` (configuration not stated): the inhibition was inactive: 5.4%.
For `N#CC1(Nc2ccccc2)CCN(CCc2ccccc2)CC1`, the inhibition is inactive: 9.1%.

(Values after PubChem BioAssay AID612 (The Scripps Research Institute Molecular Screening Center, 2007).)
